Earlier results in patent publication US7718385B2, “Bioactivation of alkylating agents for cancer treatment” (priority 2003, dated 2010).

Test system: human tumor cell lines
Conditions: several human tumor cell lines in vitro; cited from earlier work

CC1=C2C(=C[C@@](C)(CO)[C@@H]2O)C(=O)[C@](C)(O)C12CC2 [Illudin S]
concentrations with cytotoxic and cytostatic properties: nanomolar concentrations
